Measured values taken from PMC1868657 (International Journal of Medical Sciences, 2007).

Target: T1, human SGLT2 (Homo sapiens, UniProt P31639)
T1 sequence (P31639 1-672): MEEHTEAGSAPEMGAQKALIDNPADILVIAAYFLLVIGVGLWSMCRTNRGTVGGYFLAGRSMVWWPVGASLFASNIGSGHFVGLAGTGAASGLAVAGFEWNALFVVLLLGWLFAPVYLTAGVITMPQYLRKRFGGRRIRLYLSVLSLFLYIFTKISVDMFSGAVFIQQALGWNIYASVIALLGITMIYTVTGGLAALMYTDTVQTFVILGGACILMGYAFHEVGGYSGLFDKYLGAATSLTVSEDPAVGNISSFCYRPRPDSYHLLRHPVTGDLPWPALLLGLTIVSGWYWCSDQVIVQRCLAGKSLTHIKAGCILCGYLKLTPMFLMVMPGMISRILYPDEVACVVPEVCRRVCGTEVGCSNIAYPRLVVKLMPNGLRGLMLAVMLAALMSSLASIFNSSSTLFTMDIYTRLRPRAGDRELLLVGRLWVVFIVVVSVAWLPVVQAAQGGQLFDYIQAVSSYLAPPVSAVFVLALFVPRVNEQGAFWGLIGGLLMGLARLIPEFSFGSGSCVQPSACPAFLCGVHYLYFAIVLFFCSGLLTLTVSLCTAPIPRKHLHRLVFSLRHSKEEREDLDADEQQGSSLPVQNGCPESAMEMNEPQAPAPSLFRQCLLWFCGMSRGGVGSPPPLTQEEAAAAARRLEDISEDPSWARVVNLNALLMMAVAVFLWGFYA
Test: Sodium-dependent [14C]AMG uptake in CHO cells expressing hSGLT2
Assay type: cell-based
Details: read-out: percent inhibition of sodium-dependent AMG-uptake, hSGLT2

- inhibition at 10 µM: 33.4 ± 1.8%
SMILES: O=C(CCc1ccc(O)cc1)c1c(O)cc(O)cc1O[C@@H]1O[C@H](CO)[C@@H](O)[C@H](O)[C@H]1O [Phlorizin]
